Data taken from patent US20160033531A1, “METHOD AND COMPOSITIONS FOR DETECTING BINDING TO THE PREGNANE X RECEPTOR” (ST. JUDE CHILDREN'S RESEARCH HOSPITAL, priority 2013, published 2016).

How the values were obtained:
GST-PXRLBD [1] = biological target: T1, GST-PXRLBD (Homo sapiens, UniProt O75469); test: Optimization of probe concentration for hPXR TR-FRET binding assays; details: DMSO, no hPXR protein
T1 sequence (O75469 146-433 limits assumed): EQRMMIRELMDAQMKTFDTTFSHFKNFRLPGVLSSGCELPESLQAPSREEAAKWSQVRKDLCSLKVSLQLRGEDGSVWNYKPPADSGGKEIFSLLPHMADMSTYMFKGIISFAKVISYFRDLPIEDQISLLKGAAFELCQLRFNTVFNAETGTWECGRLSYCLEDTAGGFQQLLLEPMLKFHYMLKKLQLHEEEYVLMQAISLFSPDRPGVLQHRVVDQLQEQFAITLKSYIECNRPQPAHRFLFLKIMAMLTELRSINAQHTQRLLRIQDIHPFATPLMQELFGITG

GST-PXRLBD [2] = biological target: T1, GST-PXRLBD

Row | Molecule | Fluorescent emission ratio in the absence of GST-hPXR-LBD (GST-PXRLBD [1]; 100 nM BFLV) | Fluorescent emission ratio in the absence of GST-hPXR-LBD (GST-PXRLBD [1]; 250 nM BFLV) | Fluorescent emission ratio in the absence of GST-hPXR-LBD (GST-PXRLBD [1]; 500 nM BFLV) | Ki (GST-PXRLBD [2]) [nM]
1 | 7-(3-(((3aR,4R,5S,10bR)-3a-ethyl-9-((3S,5S,7S,9S)-5-ethyl-5-hydroxy-9-(methoxycarbonyl)-2,4,5,6,7,8,9,10-octahydro-1H-3,7-methano[1]azacycloundecino[5,4-b]indol-9-yl)-5-hydroxy-8-methoxy-5-(methoxycarbonyl)-6-methyl-3a,3a^1,4,5,5a,6,11,12-octahydro-1H-indolizino[8,1-cd]carbazol-4-yl)oxy)-3-oxopropyl)-5,5-difluoro-1,3-dimethyl-5H-dipyrrolo[1,2-c:2′,1′-f][1,3,2]diazaborinin-4-ium-5-uide [BFLV] | 0.019 | 0.025 | 0.04 | 
2 | Clc1ccccc1C(c1ccccc1)(c1ccccc1)n1ccnc1 [Clotrimazole, clotrimazole] |  |  |  | 1410
